Binding of CDR-mutated scFvs to a peptide of the spike HR2 region

Source: Engelhart et al. 2022 (doi:10.1038/s41597-022-01779-4), MIT Lincoln Laboratory and A-Alpha Bio; data file from the FLAb repository.

Antigen: PDVDLGDISGINAS, a 14-residue peptide of the SARS-CoV-2 spike HR2 region.

Parent: Ab-14, a human scFv built as VH, a (GGGGS)3 linker, VL. Only the CDRs of the light chain vary.
VH: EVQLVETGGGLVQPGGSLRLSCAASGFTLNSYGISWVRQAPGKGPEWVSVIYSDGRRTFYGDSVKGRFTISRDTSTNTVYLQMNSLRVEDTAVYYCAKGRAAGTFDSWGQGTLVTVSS
VL: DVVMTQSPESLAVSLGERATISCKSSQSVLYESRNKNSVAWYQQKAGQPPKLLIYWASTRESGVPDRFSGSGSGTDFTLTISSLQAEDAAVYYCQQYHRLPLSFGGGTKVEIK

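Phage display of a naive human antibody library on the peptide gave the parent. The library (AAYL50) carries one to three amino acid substitutions per variant, with no insertions or deletions. The assay is AlphaSeq: two haploid yeast populations carry antibody and antigen on their surface. Binding brings cells together so that they mate, and sequencing counts the barcode pairs among the diploids. The ratio of observed to expected reads was calibrated, replicate by replicate, on BCL2-family standards whose Kd was known from biolayer interferometry. Mating was done three times.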

Positions count from residue 1 of the parent VL; Y31K puts K in place of Y.
Scale: log10 of Kd in nM, estimated from mating counts; low values are strong binders.
"ND" means that the variant was in the library but no mating with the target was seen in that replicate; the authors take this as a sign of poor binding, and no number exists.
For reference, the parent read 0.65 as the reference entry and 1.68 as a member of this library.
Empty control strains, which show no peptide, gave a signal in 18% of pairings with library AAYL50; the median was 4.19 and 95% of these signals were weaker than 2.99. No background was subtracted. Also given: how often the same scFv was detected with the empty control strains, with their mean in brackets.

| # | changes | log10 Kd (nM) by replicate | empty controls |
|---|---|---|---|
| 1 | Y31K Q96I P101Q | ND ND ND | 4 of 9 (4.27) |
| 2 | V29K L30Q R99C | 0.81 1.26 1.34 | 3 of 9 (4.13) |
| 3 | Y31L V39Y S58F | 5.74 ND 5.29 | 1 of 9 (4.82) |
| 4 | S25Y Y31D S38K | 1.03 1.18 1.17 | 5 of 9 (4.93) |
| 5 | R34H Q96R | 4.97 4.21 ND | 3 of 9 (4.08) |
| 6 | K24F S25M N35F | 2.25 2.34 2.64 | 3 of 9 (4.48) |
| 7 | Q96K H98S | 1.11 1.07 1.23 | 3 of 9 (4.25) |
| 8 | V39Y A40I | ND ND ND | 1 of 9 (3.41) |
| 9 | L30G V39H Q96L | ND ND ND | 1 of 9 (2.89) |
| 10 | V39Y S58N R99C | ND ND ND | 0 of 9 |
| 11 | S25Q S38Y | 3.08 2.54 2.84 | 5 of 9 (4.21) |
| 12 | Q27N K36T T59R | 1.23 1.51 1.65 | 0 of 9 |
| 13 | S28D S38C L100P | ND 4.86 ND | 3 of 9 (4.61) |
| 14 | S33F A40V R99E | ND ND ND | 0 of 9 |
| 15 | S25V V39D T59V | ND ND ND | 0 of 9 |
| 16 | V29H N35Q V39Y | ND ND ND | 4 of 9 (4.64) |
| 17 | S26E L30A R60D | ND ND ND | 0 of 9 |
| 18 | L30C W56M L100Y | 1.25 1.33 2.86 | 0 of 9 |
| 19 | S25M S62E L100S | 1.19 1.11 1.28 | 2 of 9 (4.37) |
| 20 | S33E S38E H98C | ND ND ND | 2 of 9 (2.87) |
| 21 | S33G R60H S62G | 3.42 2.53 2.50 | 0 of 9 |
| 22 | L30W K36Q W56Y | 0.86 0.97 0.92 | 4 of 9 (5.34) |
| 23 | E32W N35G T59E | 2.11 1.63 2.66 | 1 of 9 (3.62) |
| 24 | S28N V29S Y97V | 4.33 5.26 4.23 | 4 of 9 (5.12) |
| 25 | S33H T59Q P101T | ND 3.90 ND | 0 of 9 |
| 26 | S28N S62F P101L | 4.92 ND 3.91 | 4 of 9 (3.75) |
| 27 | S26M S38M L100R | ND 4.26 4.96 | 6 of 9 (4.36) |
| 28 | Q27P R60I P101V | ND ND ND | 1 of 9 (3.11) |
| 29 | A40C W56G E61D | 0.30 0.55 0.42 | 1 of 9 (4.61) |
| 30 | S28M R34C S58G | 3.87 3.56 3.25 | 3 of 9 (4.01) |
| 31 | S26I Q27H V29Q | 1.24 1.76 1.13 | 0 of 9 |
| 32 | S26N S38V Y97Q | 4.43 ND ND | 3 of 9 (4.48) |
| 33 | S38P Q96S Y97R | 2.77 2.48 2.92 | 2 of 9 (3.80) |

4 of these entries, quoted again:

| changes | log10 Kd (nM) by replicate | empty controls |
|---|---|---|
| S28N S62F P101L | 4.92 ND 3.91 | 4 of 9 (3.75) |
| V29K L30Q R99C | 0.81 1.26 1.34 | 3 of 9 (4.13) |
| S25Y Y31D S38K | 1.03 1.18 1.17 | 5 of 9 (4.93) |
| L30C W56M L100Y | 1.25 1.33 2.86 | 0 of 9 |